Assays:
R197C-ACKR3 (human) = R197C-ACKR3 (human) (UniProt P25106); assay: cross-linking; disulfide trapping: Cys mutants of receptor and chemokine coexpressed in Sf9, purified on TALON in DDM/CHS; non-reducing 10% SDS-PAGE, Coomassie staining and western blot (anti-FLAG, anti-HA)
[1] = target: ACKR3 fused to Renilla luciferase 3 (ACKR3-Rluc3) (human) (UniProt P25106)

The chains behind the UniProt entries cited, without tags or fusion partners. Residues count along the entry.
UniProt P25106, 2-362 R197C: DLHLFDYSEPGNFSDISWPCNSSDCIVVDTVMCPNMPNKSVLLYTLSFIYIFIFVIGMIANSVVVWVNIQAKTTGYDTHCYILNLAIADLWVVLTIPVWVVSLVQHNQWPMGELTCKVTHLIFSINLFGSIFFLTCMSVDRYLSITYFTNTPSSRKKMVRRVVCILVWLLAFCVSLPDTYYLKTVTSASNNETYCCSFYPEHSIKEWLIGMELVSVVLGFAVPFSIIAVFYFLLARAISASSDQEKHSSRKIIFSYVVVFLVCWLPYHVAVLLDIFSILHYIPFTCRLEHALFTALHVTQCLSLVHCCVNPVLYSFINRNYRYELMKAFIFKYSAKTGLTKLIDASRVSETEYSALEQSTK

| percent disulfide-trapped complex (R197C-ACKR3 (human)) [%] | potency (EC50) of CXCL12-induced β-arrestin-2 recruitment to ACKR3-Rluc3, BRET in HEK293 cells [1] [nM] | Substance |
| --- | --- | --- |
| 100 | – | Y7C-CXCL12 (ligand) |
| – | 8.5 | recombinant CXCL12 from E. coli (residues 22-89 of CXCL12α) (from UniProt P48061-2 22-89) (ligand) |
